Laboratory results taken from PubChem BioAssay AID1304 (The Scripps Research Institute Molecular Screening Center, 2008).
Only a part is listed here, and it is no random draw. Activity calls are given as the source filed them. Rule as the data show it: active = activation above about 33% (passing the limit was not always enough); inactive = the rest.

By UniProt entry, the sequences of proteins in these tests, tags left out.
UniProt P25929, whole entry: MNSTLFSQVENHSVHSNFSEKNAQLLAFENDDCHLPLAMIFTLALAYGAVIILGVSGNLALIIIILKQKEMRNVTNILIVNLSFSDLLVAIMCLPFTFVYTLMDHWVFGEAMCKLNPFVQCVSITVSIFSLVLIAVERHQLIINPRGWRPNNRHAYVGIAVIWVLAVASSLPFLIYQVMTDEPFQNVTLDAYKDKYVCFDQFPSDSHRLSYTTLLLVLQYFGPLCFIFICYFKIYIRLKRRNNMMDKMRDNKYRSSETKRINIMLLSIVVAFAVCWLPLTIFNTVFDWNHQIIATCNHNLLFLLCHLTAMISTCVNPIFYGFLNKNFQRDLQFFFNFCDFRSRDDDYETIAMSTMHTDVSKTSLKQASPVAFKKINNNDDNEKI

target: Neuropeptide Y receptor type 1 (Homo sapiens) (UniProt P25929); experiment: activation enhancers of human NPY-Y1 – cell-based, primary screen (AID 1304); settings: NPY-Y1 expressing cells, potentiator/agonist activation; at 3.6 µM; stronger effect = higher value;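 also: cells stimulated with NPY at EC10 then isoproterenol at EC100; 0% = low agonist plus stimulus and 100% = saturating agonist plus stimulus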

SMILES	activation
CCN1CCC(Nc2cccc(F)c2)CC1	inactive: -18.6%
CN(C)c1ccc(C(=O)NCC2(N3CCCCC3)CCCCC2)cc1	inactive: 11.6%
CCOc1ncccc1C(=O)NCC1(N2CCOCC2)CCCCC1	inactive: -5.04%
CC(C)(C)OC(=O)N1CCC(Nc2ccccc2)CC1	inactive: 0.84%
CCC(CO)(C(=O)OC1CN2CCC1CC2)c1ccccc1 (centres undefined)	inactive: -28.8%
COc1cc(OC)cc(C(=O)NCC2(N3CCOCC3)CCCCC2)c1	inactive: -30.7%
CCCOc1ccc(C)cc1CN(CCCl)CCCl	inactive: 15.7%
COc1ccc(C(=O)NCC2(N3CCOCC3)CCCCC2)cc1OC	inactive: -4.85%
N/C(=N\O)c1c(N)no[n+]1[O-]	inactive: 3.05%
O=C(OC1CN2CCC1CC2)C1c2ccccc2C=Cc2ccccc21 (centres undefined)	inactive: 5.84%
N#Cc1ccc(C(=O)NCC2(N3CCCCC3)CCCCC2)cc1	inactive: -3.99%
c1ccc(CN2CCC(Nc3ccccc3)CC2)cc1	inactive: 16%
O=C(NCC1(N2CCCCC2)CCCCC1)c1cccc([N+](=O)[O-])c1	inactive: 3.73%
N#CC1(Nc2ccccc2)CCN(CCc2ccccc2)CC1	inactive: -22.5%
COc1ccc(NC2CCN(C(=O)OC(C)(C)C)CC2)cc1	inactive: 20.1%
CN1CCN(CCOC(=O)C(O)(c2ccccc2)c2ccccc2)CC1	inactive: -6.13%
O=C(NCC1(N2CCOCC2)CCCCC1)c1cc(=O)[nH]c2ccccc12	inactive: -9.89%
COc1ccc(CN(CCCl)CCCl)cc1Cl	inactive: 13.6%
CN(C)c1cccc(C(=O)NCC2(N3CCCCC3)CCCCC2)c1	inactive: -9.28%
CC(C)c1ccc(NC2CCN(C(=O)OC(C)(C)C)CC2)cc1	inactive: -0.44%
CN1CCC(Nc2cccc(F)c2)CC1	inactive: -30.8%
COc1ccc(C(=O)NCC2(N3CCCCC3)CCCCC2)c(OC)c1OC	active: 52.9%
O=C(NCC1(N2CCOCC2)CCCCC1)c1cc2ccccc2o1	inactive: 7.99%
CCOC(=O)N1CCC(Nc2ccc(OC)cc2)CC1	inactive: 10.6%
N#CC1(Nc2ccccc2)CCN(Cc2ccccc2)CC1	inactive: 22.8%
O=C(OC1CN2CCC1CC2)C1c2ccccc2Oc2ccccc21 (centres undefined)	inactive: -20.9%
CCOc1ccc(C)cc1CN(CCCl)CCCl	inactive: -1.94%
COc1ccc(NC2CCN(CCc3ccccc3)CC2)c(OC)c1	inactive: 21.1%
Cc1ccc(OCC(C)C)c(CN(CCCl)CCCl)c1	inactive: 4.97%
